Experiments:
Type in all cases: functional
VCaP = test: Antiproliferative activity against human VCaP cells assessed as reduction in cell growth incubated for 96 hrs by propidium iodide based 2D monolayer assay
Summary of the method: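 VCaP cells in RPMI 1640 with 10% FCS at 37 °C, 5% CO2, seeded 4,000–20,000 cells/well and left 24 h before dosing. Compounds from DMSO stocks were diluted in half-log steps in medium, 10 concentrations 0.0032–100 μM, triplicate wells, max 0.3% DMSO. After 96 h, cells were washed, stained with 7 μg/ml propidium iodide plus 0.1% Triton X-100 for 1–2 h at room temperature, and fluorescence read at ex 530/em 620 nm.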

CWR22R = test: Antiproliferative activity against human 22Rv1 cells assessed as reduction in cell growth incubated for 96 hrs by propidium iodide based 2D monolayer assay
Summary of the method: (§1)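 After 24 h recovery, compound in medium or medium alone (control wells) was added at 10 half-log concentrations from 0.0032 to 100 µM, in triplicate, with at most 0.3% DMSO. After 96 h, wells were PBS-washed, stained with 7 µg/ml PI and 0.1% Triton X-100, and fluorescence read at 530/620 nm. IC50 came from a 4-parameter fit, geometric mean.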

DU-145 = test: Antiproliferative activity against human DU145 cells assessed as reduction in cell growth incubated for 96 hrs by propidium iodide based 2D monolayer assay; summary of the method: as §1
LNCaP = test: Antiproliferative activity against human LNCAP cells assessed as reduction in cell growth incubated for 96 hrs by propidium iodide based 2D monolayer assay; summary of the method: as §1

Measured: Activity

CC(O)(COc1ccc(C#N)cc1)C(=O)Nc1cccc(S(F)(F)(F)(F)F)c1 (racemic)
active: VCaP Dose-dependent effect | CWR22R Dose-dependent effect | DU-145 = Dose-dependent effect | LNCaP Dose-dependent effect

CC(O)(CS(=O)(=O)c1ccc(F)cc1)C(=O)Nc1cccc(S(F)(F)(F)(F)F)c1 (racemic)
active: VCaP Dose-dependent effect | CWR22R Dose-dependent effect | DU-145 = Dose-dependent effect | LNCaP Dose-dependent effect

CC(O)(COc1cccc(OC(F)(F)F)c1)C(=O)Nc1cccc(S(F)(F)(F)(F)F)c1 (racemic)
active: VCaP Dose-dependent effect | CWR22R Dose-dependent effect | DU-145 = Dose-dependent effect | LNCaP Dose-dependent effect

CC(O)(CS(=O)(=O)c1ccc(S(F)(F)(F)(F)F)cc1)C(=O)Nc1ccc(C#N)cc1C(F)(F)F (racemic)
active: VCaP Dose-dependent effect | CWR22R Dose-dependent effect | DU-145 = Dose-dependent effect | LNCaP Dose-dependent effect

CC(O)(CS(=O)(=O)c1ccc(S(F)(F)(F)(F)F)cc1)C(=O)Nc1ccc([N+](=O)[O-])cc1C(F)(F)F (racemic)
active: VCaP Dose-dependent effect | CWR22R Dose-dependent effect | DU-145 = Dose-dependent effect | LNCaP Dose-dependent effect

CC(O)(CS(=O)(=O)c1cccc(S(F)(F)(F)(F)F)c1)C(=O)Nc1ccc([N+](=O)[O-])cc1C(F)(F)F (racemic)
active: VCaP Dose-dependent effect | CWR22R Dose-dependent effect | DU-145 = Dose-dependent effect | LNCaP Dose-dependent effect

CC(O)(COc1ccc(C#N)c(F)c1)C(=O)Nc1cccc(S(F)(F)(F)(F)F)c1 (racemic)
active: VCaP Dose-dependent effect | CWR22R Dose-dependent effect | DU-145 = Dose-dependent effect | LNCaP Dose-dependent effect

CC(O)(CS(=O)(=O)c1ccccc1OC(F)(F)F)C(=O)Nc1ccc(S(F)(F)(F)(F)F)cc1 (racemic)
active: VCaP Dose-dependent effect | CWR22R Dose-dependent effect | DU-145 = Dose-dependent effect | LNCaP Dose-dependent effect

CC(O)(CS(=O)(=O)c1cccc(C(F)(F)F)c1)C(=O)Nc1ccc(S(F)(F)(F)(F)F)cc1 (racemic)
active: VCaP Dose-dependent effect | CWR22R Dose-dependent effect | DU-145 = Dose-dependent effect | LNCaP Dose-dependent effect

CC(O)(CS(=O)(=O)c1cccc(S(F)(F)(F)(F)F)c1)C(=O)Nc1ccc(S(F)(F)(F)(F)F)cc1 (racemic)
active: VCaP Dose-dependent effect | CWR22R Dose-dependent effect | DU-145 = Dose-dependent effect | LNCaP Dose-dependent effect

CC(O)(CS(=O)(=O)c1ccc(C(F)(F)F)cc1)C(=O)Nc1ccc(S(F)(F)(F)(F)F)cc1 (racemic)
active: VCaP Dose-dependent effect | CWR22R Dose-dependent effect | DU-145 = Dose-dependent effect | LNCaP Dose-dependent effect

CC(O)(COc1ccc(C#N)cc1C(F)(F)F)C(=O)Nc1cccc(S(F)(F)(F)(F)F)c1 (racemic)
active: VCaP Dose-dependent effect | CWR22R Dose-dependent effect | DU-145 = Dose-dependent effect | LNCaP Dose-dependent effect

CC(O)(COc1cccc(S(F)(F)(F)(F)F)c1)C(=O)Nc1cc(C(F)(F)F)cc(C(F)(F)F)c1 (racemic)
active: VCaP Dose-dependent effect | CWR22R Dose-dependent effect | DU-145 = Dose-dependent effect | LNCaP Dose-dependent effect

CC(O)(COc1ccc(S(F)(F)(F)(F)F)cc1)C(=O)Nc1cc(C(F)(F)F)cc(C(F)(F)F)c1 (racemic)
active: VCaP Dose-dependent effect | CWR22R Dose-dependent effect | DU-145 = Dose-dependent effect | LNCaP Dose-dependent effect

CC(O)(COc1cc(C(F)(F)F)cc(C(F)(F)F)c1)C(=O)Nc1cccc(S(F)(F)(F)(F)F)c1 (racemic)
active: VCaP Dose-dependent effect | CWR22R Dose-dependent effect | DU-145 = Dose-dependent effect | LNCaP Dose-dependent effect

CC(O)(CS(=O)(=O)c1cccc(C(F)(F)F)c1)C(=O)Nc1cccc(S(F)(F)(F)(F)F)c1 (racemic)
active: VCaP Dose-dependent effect | CWR22R Dose-dependent effect | DU-145 = Dose-dependent effect | LNCaP Dose-dependent effect

CC(O)(CS(=O)(=O)c1ccc(S(F)(F)(F)(F)F)cc1)C(=O)Nc1cccc(S(F)(F)(F)(F)F)c1 (racemic)
active: VCaP Dose-dependent effect | CWR22R Dose-dependent effect | DU-145 = Dose-dependent effect | LNCaP Dose-dependent effect

CC(O)(CS(=O)(=O)c1ccc(S(F)(F)(F)(F)F)cc1)C(=O)Nc1ccc([N+](=O)[O-])c(C(F)(F)F)c1 (racemic)
active: VCaP Dose-dependent effect | CWR22R Dose-dependent effect | DU-145 = Dose-dependent effect | LNCaP Dose-dependent effect

CC(O)(CS(=O)(=O)c1ccc(OC(F)(F)F)cc1)C(=O)Nc1ccc(S(F)(F)(F)(F)F)cc1 (racemic)
active: VCaP Dose-dependent effect | CWR22R Dose-dependent effect | DU-145 = Dose-dependent effect | LNCaP Dose-dependent effect

CC(O)(CS(=O)(=O)c1ccccc1C(F)(F)F)C(=O)Nc1ccc(S(F)(F)(F)(F)F)cc1 (racemic)
active: VCaP Dose-dependent effect | CWR22R Dose-dependent effect | DU-145 = Dose-dependent effect | LNCaP Dose-dependent effect

CC(O)(CS(=O)(=O)c1cc(C(F)(F)F)cc(C(F)(F)F)c1)C(=O)Nc1ccc(S(F)(F)(F)(F)F)cc1 (racemic)
active: VCaP Dose-dependent effect | CWR22R Dose-dependent effect | DU-145 = Dose-dependent effect | LNCaP Dose-dependent effect

CC(O)(CS(=O)(=O)c1cccc(S(F)(F)(F)(F)F)c1)C(=O)Nc1ccc([N+](=O)[O-])c(C(F)(F)F)c1 (racemic)
active: VCaP Dose-dependent effect | CWR22R Dose-dependent effect | DU-145 = Dose-dependent effect | LNCaP Dose-dependent effect

CC(O)(CS(=O)(=O)c1ccc(S(F)(F)(F)(F)F)cc1)C(=O)Nc1ccc(S(F)(F)(F)(F)F)cc1 (racemic)
active: VCaP Dose-dependent effect | CWR22R Dose-dependent effect | DU-145 = Dose-dependent effect | LNCaP Dose-dependent effect

CC(O)(COc1ccccc1C(F)(F)F)C(=O)Nc1cccc(S(F)(F)(F)(F)F)c1 (racemic)
active: VCaP Dose-dependent effect | CWR22R Dose-dependent effect | DU-145 = Dose-dependent effect | LNCaP Dose-dependent effect

CC(O)(COc1ccc(OC(F)(F)F)cc1)C(=O)Nc1cccc(S(F)(F)(F)(F)F)c1 (racemic)
active: VCaP Dose-dependent effect | CWR22R Dose-dependent effect | DU-145 = Dose-dependent effect | LNCaP Dose-dependent effect

CC(O)(COc1cccc(S(F)(F)(F)(F)F)c1)C(=O)Nc1ccc(C(F)(F)F)cc1 (racemic)
active: VCaP Dose-dependent effect | CWR22R Dose-dependent effect | DU-145 = Dose-dependent effect | LNCaP Dose-dependent effect

CC(O)(CS(=O)(=O)c1cccc(S(F)(F)(F)(F)F)c1)C(=O)Nc1cccc(S(F)(F)(F)(F)F)c1 (racemic)
active: VCaP Dose-dependent effect | CWR22R Dose-dependent effect | DU-145 = Dose-dependent effect | LNCaP Dose-dependent effect

CC(O)(CS(=O)(=O)c1cccc(OC(F)(F)F)c1)C(=O)Nc1ccc(S(F)(F)(F)(F)F)cc1 (racemic)
active: VCaP Dose-dependent effect | CWR22R Dose-dependent effect | DU-145 = Dose-dependent effect | LNCaP Dose-dependent effect

CC(O)(COc1ccc(S(F)(F)(F)(F)F)cc1)C(=O)Nc1ccc(C(F)(F)F)cc1 (racemic)
active: VCaP Dose-dependent effect | CWR22R Dose-dependent effect | DU-145 = Dose-dependent effect | LNCaP Dose-dependent effect

CC(O)(CS(=O)(=O)c1ccc(F)cc1)C(=O)Nc1ccc(S(F)(F)(F)(F)F)cc1 (racemic)
active: VCaP Dose-dependent effect | CWR22R Dose-dependent effect | DU-145 = Dose-dependent effect | LNCaP Dose-dependent effect

CC(O)(COc1ccccc1OC(F)(F)F)C(=O)Nc1cccc(S(F)(F)(F)(F)F)c1 (racemic)
active: VCaP Dose-dependent effect | CWR22R Dose-dependent effect | DU-145 = Dose-dependent effect | LNCaP Dose-dependent effect

CC(O)(CS(=O)(=O)c1cccc(S(F)(F)(F)(F)F)c1)C(=O)Nc1ccc(C#N)cc1C(F)(F)F (racemic)
active: VCaP Dose-dependent effect | CWR22R Dose-dependent effect | DU-145 = Dose-dependent effect | LNCaP Dose-dependent effect

From ChEMBL document CHEMBL4364301 (Eur J Med Chem, 2019)
